Publication PMC4032190 (Journal of medicinal chemistry, 2014)

Test system: XBP-1s expression
Assay: Inhibition of XBP-1s expression in LPS-stimulated wild-type mouse B cells
Conditions: 20 µM, 24 h, immunoblot

## C=CCOC(=O)N1CCc2c(c(=O)oc3c(C(=O)OC)c(O)ccc23)C1 [Compound 41, 3-Allyl 7-methyl 8-hydroxy-5-oxo-4,5-dihydro-1H-chromeno[3,4-c]pyridine-3,7(2H)-dicarboxylate]
  inhibition of XBP-1s expression: little to no inhibitory effect
